This is an account of results in BindingDB's records for 8071934.

By UniProt entry, the sequences of proteins in these tests, tags left out.
UniProt P41143, whole entry, looked up: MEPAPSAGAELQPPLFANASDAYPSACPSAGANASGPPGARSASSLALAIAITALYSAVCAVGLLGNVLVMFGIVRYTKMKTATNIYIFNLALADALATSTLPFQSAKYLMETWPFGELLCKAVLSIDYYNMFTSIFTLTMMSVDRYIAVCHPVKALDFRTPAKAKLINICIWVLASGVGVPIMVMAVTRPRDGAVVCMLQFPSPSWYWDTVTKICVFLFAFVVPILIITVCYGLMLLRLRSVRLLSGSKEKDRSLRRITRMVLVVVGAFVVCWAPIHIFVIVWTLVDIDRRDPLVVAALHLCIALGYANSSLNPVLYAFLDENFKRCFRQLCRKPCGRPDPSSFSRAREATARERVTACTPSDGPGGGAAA

For orientation: IC50 means the concentration at which inhibition is half-maximal.

For the experiment, the target named is Delta-type opioid receptor (Homo sapiens, UniProt P41143). Description: Tested for inhibitory concentration against [3H]DPDPE binding at sites of delta-opioid receptor in guinea pig brain membrane.
As to `CN(C(=O)Cc1ccccc1)[C@H](CN1CCCC1)c1ccccc1`, the IC50 was above 1000 nM.
Turning to `CN(C(=O)Cc1ccc(N=C=S)cc1)[C@H](CN1CCCC1)c1ccccc1`, the IC50 was 150 nM.
In the case of `CN(C(=O)Cc1cccc(N=C=S)c1)[C@H](CN1CCCC1)c1ccccc1` it was 144 nM; in that of `CN(C(=O)Cc1ccccc1)[C@H]1C[C@@]2(CCCO2)CC[C@@H]1N1CCCC1`, 5000 nM.
As for `CN(C(=O)Cc1ccc(Cl)c(Cl)c1)[C@H](CN1CCCC1)c1ccc(N=C=S)cc1`, the IC50 is above 1000 nM.
On to `CN(C(=O)Cc1ccccc1N=C=S)[C@H](CN1CCCC1)c1ccccc1`, for which the IC50 was 1060 nM. This lies in the single-digit micromolar range.
Compound `CN(C(=O)Cc1cc(Cl)c(Cl)cc1N=C=S)[C@H](CN1CCCC1)c1ccccc1` yielded an IC50 of 1700 nM.
As to `CN(C(=O)Cc1ccc(Cl)c(Cl)c1)[C@H](CN1CCCC1)c1ccccc1`, the IC50 turned out to be 600 nM.
